From ChEMBL document CHEMBL3886918, “Pyrimidine compounds useful in the treatment of diseases mediated by IKKE and/or TBK1 mechanisms” (2016)

Sequences of proteins named here, by UniProt entry; tags and fusion partners are left off. A change or cut given only in a name is not applied to a line headed by its entry.
UniProt Q9UHD2: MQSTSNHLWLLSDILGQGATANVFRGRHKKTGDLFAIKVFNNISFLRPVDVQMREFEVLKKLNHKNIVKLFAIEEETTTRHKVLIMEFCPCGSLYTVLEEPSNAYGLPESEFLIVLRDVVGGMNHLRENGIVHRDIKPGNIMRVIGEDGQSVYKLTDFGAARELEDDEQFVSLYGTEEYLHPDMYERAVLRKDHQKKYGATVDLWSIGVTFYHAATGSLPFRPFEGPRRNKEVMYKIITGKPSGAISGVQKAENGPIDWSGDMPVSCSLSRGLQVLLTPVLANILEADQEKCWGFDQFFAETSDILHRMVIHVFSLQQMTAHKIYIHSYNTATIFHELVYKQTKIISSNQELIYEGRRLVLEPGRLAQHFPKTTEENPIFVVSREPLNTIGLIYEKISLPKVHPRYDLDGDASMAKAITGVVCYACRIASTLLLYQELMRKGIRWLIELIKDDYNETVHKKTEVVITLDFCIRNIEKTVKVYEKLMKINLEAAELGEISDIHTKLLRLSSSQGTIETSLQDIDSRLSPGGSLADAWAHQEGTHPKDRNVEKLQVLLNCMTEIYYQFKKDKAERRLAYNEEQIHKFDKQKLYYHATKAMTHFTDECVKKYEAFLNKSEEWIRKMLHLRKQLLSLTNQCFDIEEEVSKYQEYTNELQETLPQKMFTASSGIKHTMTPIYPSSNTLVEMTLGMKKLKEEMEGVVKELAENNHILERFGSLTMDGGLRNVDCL

Molecular target: Serine/threonine-protein kinase TBK1 (Homo sapiens, UniProt Q9UHD2)
Assay: Time-Resolved Fluorescence-based Lanthascreen Assay: Kinase inhibition assays (10 μL) were performed at 20° C. in 384-well plate format. Compound IC50 values were determined at the apparent Km for ATP (20 μM) based on a radiometric assay (Invitrogen) using 8 or 10 point curves in duplicate. The final reaction conditions contained 400 nM fluorescein-IkBα substrate ([…]), 20 μM ATP, 2 nM or 8 nM IKKε or TBK1 kinase respectively, and 3% DMSO in kinase assay buffer consisting of 50 mM HEPES (pH 7.5), 10 mM MgCl, 1 mM EGTA, 0.01% Brij-35.Compound dilutions were prepared from 10 mM DMSO stocks by dilution into DMSO. Compound dilution series were further diluted in kinase assay buffer to give a 12% DMSO stock, the final concentration in the assay being 3% DMSO.The kinase phosphorylation assay was initiated by the addition of the kinase and the reaction was allowed to proceed for 1 h or 2.5 h for IKKε and TBK-1 kinase respectively.

Compound: CC(C)(N)c1ccc(Nc2nccc(-c3cnc(N4CC[C@H](F)C4)c(C#N)c3)n2)cn1
- IC50: < 100 nM
